Columns and labels:
NF-kB p65 (RelA), Q04206 = biological target: T1, NF-kB p65 (RelA), Q04206
T1 chain: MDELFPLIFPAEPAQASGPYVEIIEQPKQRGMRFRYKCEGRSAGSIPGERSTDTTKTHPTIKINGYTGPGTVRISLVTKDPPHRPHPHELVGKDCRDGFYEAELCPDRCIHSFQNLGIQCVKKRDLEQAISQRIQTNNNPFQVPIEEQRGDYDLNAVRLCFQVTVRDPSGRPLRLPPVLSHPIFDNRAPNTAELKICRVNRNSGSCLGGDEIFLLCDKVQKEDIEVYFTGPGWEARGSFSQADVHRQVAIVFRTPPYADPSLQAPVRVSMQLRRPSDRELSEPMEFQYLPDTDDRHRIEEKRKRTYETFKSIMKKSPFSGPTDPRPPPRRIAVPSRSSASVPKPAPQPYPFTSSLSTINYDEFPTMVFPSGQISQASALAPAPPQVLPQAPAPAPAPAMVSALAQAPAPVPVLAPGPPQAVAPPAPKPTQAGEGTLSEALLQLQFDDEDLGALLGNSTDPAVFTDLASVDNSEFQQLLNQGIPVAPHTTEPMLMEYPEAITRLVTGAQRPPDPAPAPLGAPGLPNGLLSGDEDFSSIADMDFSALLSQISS

[1] = biological target: histone H3 (histones isolated from HEK293T cells)
[2] = biological target: histone H4 (purified human histones isolated from HEK293T cells)
[3] = biological target: recombinant human full-length histone H4
[4] = biological target: synthetic histone H4 peptide aa 1-21
[5] = biological target: T2, synthetic histone H4 peptide aa 15-24
T2 chain: GAKRHRKVLR

B1: recombinant SMYD2 (SET and MYND domain containing-2 histone methyltransferase), wild type (protein)
chain: MRAEGLGGLERFCSPGKGRGLRALQPFQVGDLLFSCPAYAYVLTVNERGNHCEYCFTRKEGLSKCGRCKQAFYCNVECQKEDWPMHKLECSPMVVFGENWNPSETVRLTARILAKQKIHPERTPSEKLLAVKEFESHLDKLDNEKKDLIQSDIAALHHFYSKHLGFPDNDSLVVLFAQVNCNGFTIEDEELSHLGSAIFPDVALMNHSCCPNVIVTYKGTLAEVRAVQEIKPGEEVFTSYIDLLYPTEDRNDRLRDSYFFTCECQECTTKDKDKAKVEIRKLSDPPKAEAIRDMVRYARNVIEEFRRAKHYKSPSELLEICELSQEKMSSVFEDSNVYMLHMMYQAMGVCLYMQDWEGALQYGQKIIKPYSKHYPLYSLNVASMWLKLGRLYMGLEHKAAGEKALKKAIAIMEVAHGKDHPYISEIKQEIESH
NF-kB p65 (RelA), Q04206
  in vitro methylation (3H-SAM, autoradiography): but not other putative substrates such as p65 and Sp1
Sp1, P08047
  in vitro methylation (3H-SAM, autoradiography): but not other putative substrates such as p65 and Sp1
[1]
  in vitro methylation (3H-SAM, autoradiography): SMYD2 also methylated histone H3 and p53, known substrates of SMYD2
[2]
  in vitro methylation of purified human histones (radio-labeled SAM): Histone H4 was prominently methylated by SMYD2
p53
  in vitro methylation (3H-SAM, autoradiography): SMYD2 also methylated histone H3 and p53, known substrates of SMYD2
[3]
  in vitro methylation of recombinant human histone H4: avidly methylated by SMYD2, a process inhibited by AZ391
[4]
  in vitro methylation of synthetic histone H4 peptides: Both peptides were efficiently methylated by SMYD2, a process suppressed by the addition of AZ391
[5]
  in vitro methylation of synthetic histone H4 peptides: Both peptides were efficiently methylated by SMYD2, a process suppressed by the addition of AZ391

From patent US20180002699
